Test results: ChEMBL document CHEMBL5154649, “Design, synthesis, and characterization of novel aminoalcohol quinolines with strong in vitro antimalarial activity” (Eur J Med Chem, 2022)

Amino acid sequences for entries named in this document (tags omitted). A change or cut given only in a name is not applied to a line headed by its entry.
UniProt Q12809: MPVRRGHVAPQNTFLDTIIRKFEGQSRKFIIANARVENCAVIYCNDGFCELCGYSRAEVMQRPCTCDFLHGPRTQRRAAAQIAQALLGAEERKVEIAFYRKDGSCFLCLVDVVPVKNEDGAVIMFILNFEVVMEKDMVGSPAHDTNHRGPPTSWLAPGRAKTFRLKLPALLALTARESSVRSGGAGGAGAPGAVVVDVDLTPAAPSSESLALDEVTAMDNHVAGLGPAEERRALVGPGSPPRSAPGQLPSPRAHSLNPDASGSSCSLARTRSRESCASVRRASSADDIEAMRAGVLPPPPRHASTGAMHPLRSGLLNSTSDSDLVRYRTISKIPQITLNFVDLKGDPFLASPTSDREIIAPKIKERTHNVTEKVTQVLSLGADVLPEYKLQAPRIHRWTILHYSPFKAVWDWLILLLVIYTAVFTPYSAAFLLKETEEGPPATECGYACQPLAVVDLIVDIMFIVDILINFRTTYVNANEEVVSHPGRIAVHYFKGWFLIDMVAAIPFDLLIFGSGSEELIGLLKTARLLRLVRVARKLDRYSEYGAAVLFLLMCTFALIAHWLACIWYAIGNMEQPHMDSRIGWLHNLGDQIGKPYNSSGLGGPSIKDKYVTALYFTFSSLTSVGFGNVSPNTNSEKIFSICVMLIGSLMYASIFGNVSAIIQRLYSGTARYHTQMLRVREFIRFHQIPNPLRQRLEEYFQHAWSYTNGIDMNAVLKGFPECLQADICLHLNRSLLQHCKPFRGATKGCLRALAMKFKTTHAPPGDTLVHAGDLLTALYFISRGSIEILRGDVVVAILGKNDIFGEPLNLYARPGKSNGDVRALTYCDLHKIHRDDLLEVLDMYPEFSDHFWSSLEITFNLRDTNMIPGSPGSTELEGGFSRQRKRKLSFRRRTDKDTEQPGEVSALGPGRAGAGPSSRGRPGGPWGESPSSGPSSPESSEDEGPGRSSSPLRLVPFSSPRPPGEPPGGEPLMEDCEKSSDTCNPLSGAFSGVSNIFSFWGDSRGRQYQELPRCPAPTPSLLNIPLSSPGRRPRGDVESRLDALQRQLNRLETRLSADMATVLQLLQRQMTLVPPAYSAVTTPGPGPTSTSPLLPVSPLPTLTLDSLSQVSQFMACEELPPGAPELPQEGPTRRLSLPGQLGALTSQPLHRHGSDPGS

Biological target: Voltage-gated inwardly rectifying potassium channel KCNH2 (Homo sapiens, UniProt Q12809)
Assay: Inhibition of hERG channel expressed in CHO cells at holding potential of -80 mV by whole cell patch clamp method
Type: toxicity, cell-based

| SMILES | IC50 |
| --- | --- |
| O[C@H](c1cc(C(F)(F)F)nc2c(C(F)(F)F)cccc12)[C@@H]1CCCCN1 [(R,S)-MEFLOQUINE] | 13.6 µM |
| O[C@@H](c1cc(C(F)(F)F)nc2c(C(F)(F)F)cccc12)[C@H]1CCCCN1 [(S,R)-MEFLOQUINE] | 15 µM |
